Source: ChEMBL document CHEMBL6087388, “Hydrogen peroxide responsive theranostics for cancer-selective activation of DNA alkylators and real-time fluorescence monitoring in living cells” (Eur J Med Chem, 2024)
The source made the active and inactive calls. The calls are words filed in the database; no cut-off is given here.

Tested on: MDA-MB-468
Experiment: Antiproliferative activity against human MDA-MB-468 cells assessed as reduction in cell viability at >3.125 uM incubated for 48 hrs by CellTiter-Glo assay
Assay type: functional, cell-based

CC1(C)OB(c2ccc3c(c2)Oc2cc(B4OC(C)(C)C(C)(C)O4)ccc2C32OC(=O)c3cc(-n4cc(CCCCCCCCCOCc5cc(N(CCCl)CCCl)ccc5B5OC(C)(C)C(C)(C)O5)nn4)ccc32)OC1(C)C
Activity: inactive
